Among the data in ChEMBL document CHEMBL1136629, “Amphipathic 3-phenyl-7-propylbenzisoxazoles; human pPaR gamma, delta and alpha agonists” (Bioorg Med Chem Lett, 2003) are Ki values, retold here.

The chains behind the UniProt entries cited, without tags or fusion partners. Where a name states a change or a piece, a line headed by the entry shows the natural chain unless it says otherwise.
UniProt P37231: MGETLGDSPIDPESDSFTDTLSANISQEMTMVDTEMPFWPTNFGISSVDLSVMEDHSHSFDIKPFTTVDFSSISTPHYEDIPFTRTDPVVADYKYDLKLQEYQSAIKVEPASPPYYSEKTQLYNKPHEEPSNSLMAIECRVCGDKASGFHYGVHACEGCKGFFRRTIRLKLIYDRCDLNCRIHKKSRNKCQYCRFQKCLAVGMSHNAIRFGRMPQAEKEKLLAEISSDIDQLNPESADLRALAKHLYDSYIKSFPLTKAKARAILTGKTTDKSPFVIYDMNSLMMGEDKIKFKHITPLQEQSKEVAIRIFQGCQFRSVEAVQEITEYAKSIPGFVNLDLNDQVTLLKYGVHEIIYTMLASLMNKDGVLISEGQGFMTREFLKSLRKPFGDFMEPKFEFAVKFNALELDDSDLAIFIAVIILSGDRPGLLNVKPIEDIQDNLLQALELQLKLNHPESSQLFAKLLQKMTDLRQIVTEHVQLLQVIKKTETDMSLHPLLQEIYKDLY

This assay addresses Peroxisome proliferator-activated receptor gamma (Homo sapiens, UniProt P37231). Briefly: In vitro binding affinity towards human peroxisome proliferator activated receptor gamma (PPAR gamma).

One may read the Ki as a measure of affinity in units of concentration, obtained from inhibition or displacement. High values mean a looser hold on the target, low ones a stronger hold on the target. For the compound `CCCc1c(OCCCOc2ccc(CC(=O)O)cc2)ccc2c(-c3ccccc3)noc12`, the affinity corresponds to a Ki of 32 nM.
